Source: patent publication US20240115582A1, “USE OF SODIUM TRANS-[TETRACHLORIDOBIS(1H-INDAZOLE)RUTHENATE(III)] FOR TREATING CANCERS” (Bold Therapeutics Inc., priority 2020, published 2024)

System: multiple myeloma cell lines

C[C@@H]1COCCN1c1cc(-c2ccnn2C)c2ccnc(-c3ccn[nH]3)c2n1 [BAY 1895344]
interaction of the two drugs to reduce cell viability: Synergistic interactions
